In ChEMBL document CHEMBL5223081 (J Med Chem, 2021):

Species on record: Homo sapiens
Experiment: Selectivity index, ratio of antagonist activity at A1 receptor to antagonist activity at A2 receptor

Ratio: > 800
SMILES: CC[C@@H]1CN2C(=O)N(C)c3nc(-c4cc(Cl)cc(Cl)c4Cl)[nH]c3C2=N1
